Apparent affinities of Ab-95 variants for a coronavirus HR2 peptide

The measurements come from Engelhart et al. 2022 (doi:10.1038/s41597-022-01779-4) through the FLAb antibody collection.

Antigen: PDVDLGDISGINAS, a 14-residue peptide of the SARS-CoV-2 spike HR2 region.

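The parent was found by panning a naive human phage display library on the peptide. AAYL52 was designed without a model: most single CDR substitutions and a random sample of double and triple ones. AlphaSeq pools MATa yeast showing the antibodies with MATalpha yeast showing the peptide. Binding brings cells together so that they mate, and sequencing counts the barcode pairs among the diploids. The ratio of observed to expected reads was calibrated, replicate by replicate, on BCL2-family standards whose Kd was known from biolayer interferometry. The assay was run in three technical replicates.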

Parent scFv Ab-95: VH joined to VL by the linker GGGGSGGGGSGGGGS. Changes lie in the light chain CDRs alone.
VH: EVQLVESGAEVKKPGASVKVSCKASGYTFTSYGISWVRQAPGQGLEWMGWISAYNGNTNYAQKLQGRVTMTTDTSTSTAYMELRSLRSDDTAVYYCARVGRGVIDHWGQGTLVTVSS
VL: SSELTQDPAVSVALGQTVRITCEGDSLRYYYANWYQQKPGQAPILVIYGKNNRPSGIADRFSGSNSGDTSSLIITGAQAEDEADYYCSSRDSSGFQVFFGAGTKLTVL

Positions count from residue 1 of the parent VL; G24H puts H in place of G. All variants listed here change G24 of the VL, counted from its first residue. Affinities are written as log10 Kd with Kd in nM; a lower number is a better binder. A pair that was not seen in that replicate is written "nd"; this usually means weak binding, but a binder can also be missed. In this assay the parent's reference entry averaged 2.31; its copy inside this library read 2.25. Three control strains display no target. For library AAYL52, 28% of the pairings with them gave a signal, with a median of 3.91 and one signal in twenty below 2.90, so weak values seen in few replicates may be background. For each scFv, signals with the empty controls are counted beside the result.

* G24H A32Q F95T = 3.85, 3.26, 4.35 (controls 2 of 9)
* G24H P54R D91R = 3.21, 5.64, 3.23 (controls 3 of 9)
* G24A S26C Q96M = 3.62, 5.56, nd (controls 3 of 9)
* G24V F95V Q96W = 1.99, 2.60, 2.22 (controls 0 of 9)
* G24W R53E G94M = 3.98, nd, nd (controls 1 of 9)
* G24A = 2.70, 2.60, 2.59 (controls 3 of 9)
* G24E Y30L K50Q = nd, 5.52, nd (controls 3 of 9)
* G24Q Y30T V97D = 3.59, 3.51, nd (controls 0 of 9)
* E23T G24R N33C = 4.19, nd, nd (controls 1 of 9)
* G24P N52Q P54I = nd, 3.88, nd (controls 2 of 9)
* G24E V97C = nd, 4.54, nd (controls 5 of 9)
* G24T S26C S55H = 1.84, 1.53, 0.98 (controls 5 of 9)
* G24A G49C S93V = nd, 5.63, nd (controls 5 of 9)
* G24N Y30T F95M = 3.14, 3.21, nd (controls 2 of 9)
* G24P Y30H Q96G = nd, nd, nd (controls 3 of 9)
* G24A N51W S93D = 4.50, nd, nd (controls 1 of 9)
* G24Y K50P N51P = 4.61, 5.02, nd (controls 3 of 9)
* G24W D25G S55A = nd, nd, nd (controls 1 of 9)
* G24Y Y30W = 3.67, 3.92, 2.74 (controls 4 of 9)
* G24K R53L G94N = 3.68, 4.49, nd (controls 4 of 9)
* G24Q P54E S93A = 5.14, nd, nd (controls 4 of 9)
* G24M D91H = 3.82, 3.41, nd (controls 5 of 9)
* G24H Y30H F98D = 4.27, nd, nd (controls 0 of 9)
* G24D G49K N51M = 3.14, 4.68, nd (controls 3 of 9)
* G24A S89I F95A = 4.07, 4.05, nd (controls 2 of 9)
* G24F G49L R53T = 3.27, 4.83, 4.19 (controls 6 of 9)
* G24Y Y31E K50P = 3.09, 2.70, 2.70 (controls 4 of 9)
* G24E S26P Y31G = nd, nd, 2.96 (controls 1 of 9)
* G24A Q96D V97D = nd, nd, 4.30 (controls 3 of 9)
* G24C R28D Y29M = 2.87, 2.95, 2.58 (controls 2 of 9)
* E23Y G24F Y30D = 3.26, 3.13, 2.88 (controls 3 of 9)
* G24L D25C N51T = nd, nd, nd (controls 3 of 9)
* G24L Y29G S55C = 3.21, 4.30, nd (controls 3 of 9)
* G24L S89W Q96M = 3.30, nd, 2.46 (controls 2 of 9)
* G24C V97L = 3.32, 3.90, 2.71 (controls 3 of 9)
* G24A Y31L D91N = 4.05, 2.78, 2.74 (controls 2 of 9)
* G24E S88L F98R = 4.51, nd, nd (controls 2 of 9)
* G24D V97G F98D = nd, 3.25, nd (controls 4 of 9)
* G24L S88W = 3.65, nd, nd (controls 1 of 9)
* G24S D25H Y31W = 3.50, nd, 3.71 (controls 2 of 9)
* G24S A32S D91W = 3.24, nd, nd (controls 3 of 9)